Laboratory results as given in ChEMBL document CHEMBL1141452, “Advances in development of dopaminergic aporphinoids” (J Med Chem, 2007).

Amino acid sequences for entries named in this document (tags omitted).
UniProt P61169, whole entry: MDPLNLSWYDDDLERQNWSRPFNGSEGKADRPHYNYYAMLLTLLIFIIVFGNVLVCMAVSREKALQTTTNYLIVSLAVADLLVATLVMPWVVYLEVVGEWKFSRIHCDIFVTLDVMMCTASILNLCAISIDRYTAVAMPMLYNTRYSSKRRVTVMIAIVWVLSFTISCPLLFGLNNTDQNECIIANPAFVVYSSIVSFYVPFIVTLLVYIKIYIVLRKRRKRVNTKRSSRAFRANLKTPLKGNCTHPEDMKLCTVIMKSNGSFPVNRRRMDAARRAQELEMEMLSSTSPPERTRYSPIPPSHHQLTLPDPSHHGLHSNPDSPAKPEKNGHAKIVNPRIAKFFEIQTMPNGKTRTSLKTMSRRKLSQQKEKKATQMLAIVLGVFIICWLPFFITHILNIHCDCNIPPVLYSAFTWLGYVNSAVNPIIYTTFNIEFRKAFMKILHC

Molecular target: D(2) dopamine receptor (Rattus norvegicus, UniProt P61169)
Test: Displacement of [3H]raclopride from rat dopamine D2 receptor

## COc1cc2c3c(c1OC)-c1c(ccc(O)c1O)CC3N(C)CC2 (stereo unspecified) [SUAVEOLINE]
  IC50: 500 nM
